According to PubChem BioAssay AID602 (SRMLSC, 2007):
The entries are a selection whose mix differs from that of the whole data set. Activity calls are given as the source filed them.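 The calls were made as follows: active = viability drop by adding the cancer drug above about 55%, with treated viability meeting a 40% cutoff (limit read from the data); inactive = the rest, inconclusive results apart.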

assay: reversal of MRP1-mediated doxorubicin resistance, primary screen, H69AR cells, doxorubicin co-treatment (AID 602); details: H69AR cells + 2 uM doxorubicin, CellTiter-Glo, 72 h; at 10 µM; stronger effect = higher value;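 also: viability without doxorubicin minus viability with 2 µM doxorubicin for each compound; larger differential means the compound sensitizes cells more to doxorubicin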

Structure (SMILES) | differential viability (reversal)
c1ccc(CN2CCC(Nc3ccccc3)CC2)cc1 | inactive: 16.3%
N/C(=N\O)c1c(N)no[n+]1[O-] | inactive: 4.81%
CCC(CO)(C(=O)OC1CN2CCC1CC2)c1ccccc1 (centres undefined) | inactive: -0.32%
CCOc1ncccc1C(=O)NCC1(N2CCOCC2)CCCCC1 | inactive: 7.59%
Fc1ccccc1NC1CCN(Cc2ccccc2)CC1 | inactive: 2.13%
O=C(OC1CN2CCC1CC2)C1c2ccccc2Oc2ccccc21 (centres undefined) | inactive: 4.39%
O=C(NCC1(N2CCOCC2)CCCCC1)c1cc2ccccc2o1 | inactive: -0.43%
O=C(NCC1(N2CCOCC2)CCCCC1)c1cc(=O)[nH]c2ccccc12 | inactive: 0.35%
N#CC1(Nc2ccccc2)CCN(CCc2ccccc2)CC1 | inactive: 7.48%
